Data on 46 molecules can be found in PubChem BioAssay AID449763 (Sanford-Burnham Center for Chemical Genomics, 2010).

Each structure is given as a SMILES string. This is a selection; strong and weak results do not stand in their true shares. Activity calls are given as the source filed them.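 The calls were made as follows: active = at 10 µM dose, activation of 40% or more, normalized to positive control; inactive = the rest.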

The test in a line: activators of apoptotic CHOP UPR arm, primary screen, cell-based, CHO-CHOP luciferase reporter, luminescence, uHTS (AID 449763).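 Also: 100% = tunicamycin at 10 µg/mL and 0% = DMSO alone.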 The settings on record: at 10 µM, active compounds read high, percent of tunicamycin response over DMSO baseline. The method in brief:
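Test system: CHO-CHOP cells, stable luciferase reporter of PERK-eIF2a-CHOP signalling | Quantity: 500 CHO-CHOP cells per well | Buffer or medium: F12 plus 10% serum | Compound dosing: 10 µM single point, 0.5% DMSO | Schedule: 6 h compound treatment, 37 °C | Signal: Luciferase luminescence | Control set: Tunicamycin high control, DMSO low control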
`NC(=O)c1cc([N+](=O)[O-])cc([N+](=O)[O-])c1N`: the activation was inactive: 0.949%.

Turning to `CN(C(=O)Cc1ccc(Cl)c(Cl)c1)[C@H]1CCCC[C@H]1N1CCCC1`, the activation was inactive: -1.42%.

With `Cc1ccc(N/C(=N/P(=O)(N2CCOCC2)N2CCOCC2)N2CCOCC2)cc1`, the activation is inactive: -0.416%.

With `CCN(N=Nc1nonc1N)c1nonc1N`, the activation is inactive: 3.63%.

For `O=[N+]([O-])c1cc([N+](=O)[O-])c(CCN2CCOCC2)c([N+](=O)[O-])c1`, the activation was inactive: 3.41%.

As to `CCOP(=O)(Nc1ccccc1)OCC`, the activation is inactive: -3%.

In the case of `Cc1cc(SC(NC(=O)c2ccc(F)cc2)C(Cl)(Cl)Cl)ncn1` (stereo unspecified), the activation is inactive: -0.841%.

For `Cc1ccc(NP(=O)(Oc2ccccc2F)Oc2ccccc2F)nc1`, the activation was inactive: -0.703%.

For the molecule `CN(C(=O)Cc1ccc(Cl)c(Cl)c1)[C@H]1CCCC[C@@H]1N1CCCC1`, the activation was inactive: -0.25%.

For the molecule `O=C(O)c1ccccc1[As](=O)(O)O`, the activation was inactive: 0.482%.

As to `CC(=O)Nc1ccc([As](=O)(O)O)cc1`, the activation is inactive: 0.177%.

Regarding `O=P(Nc1nc2ccc(Cl)cc2s1)(c1ccccc1)c1ccccc1`, the activation was inactive: -0.642%.

Consider `Cc1ccccc1OP(=O)(Nc1ccccn1)Oc1ccccc1C`, for which the activation is inactive: -0.894%.

As to `CC(NC(=O)COC(=O)C(O)(c1ccccc1)c1ccccc1)c1ccccc1` (stereo unspecified), the activation was inactive: 0.492%.

`CN(C)C(=O)Oc1noc2ccccc12`: the activation is inactive: -1.52%.

With `COC(=O)c1cc2c(s1)N=C(c1ccccc1)N(C)P2(=O)N1CCOCC1` (stereo unspecified), the activation is inactive: 0.296%.

Regarding `Cc1ccc(OP(=O)(Nc2ccccn2)Oc2ccc(C)cc2)cc1`, the activation is inactive: 0.944%.

Consider `CC(=O)NC(SC(=S)N(CC(C)C)CC(C)C)C(Cl)(Cl)Cl` (stereo unspecified), for which the activation is inactive: 3.67%.

Take `O=C(OC1CN2CCC1CC2)c1ccccc1` (stereo unspecified): the activation was inactive: -0.219%.

For `CCC(=O)N1C2C3N(C(=O)CC)C1C1N(C(=O)CC)C(C(N1C(=O)CC)N3C(=O)CC)N2C(=O)CC`, the activation was inactive: -4.35%.

Turning to `CCNC(=S)/N=C(\N)N[N+](=O)[O-]`, the activation is inactive: -0.15%.

With `O=C(NC1CCS(=O)(=O)C1)NP(=S)(Oc1ccccc1)Oc1ccccc1` (stereo unspecified), the activation was inactive: 0.848%.

Turning to `c1ccc(-c2nn[nH]n2)c(-c2nn[nH]n2)c1`, the activation was inactive: -1.1%.

`CCOC(=O)NC(Sc1ccccc1)C(Cl)(Cl)Cl` (stereo unspecified): the activation is inactive: 3.07%.

`Cc1ccc(NP(=O)(Oc2cccc(C)c2)Oc2cccc(C)c2)nc1`: the activation is inactive: -1.58%.

Take `CC(=O)Nc1ccc([As](=O)(O)O)c(O)c1`: the activation was inactive: -1.65%.

Consider `CC(=O)Nc1ccc(Oc2c([N+](=O)[O-])cc([N+](=O)[O-])cc2[N+](=O)[O-])cc1`, for which the activation was inactive: 0.554%.

With `CC(=O)c1ccc(N2CC2c2ccncc2)cc1` (stereo unspecified), the activation is inactive: 3.41%.

Regarding `Cc1ccccc1CN(C)C(=O)COC(=O)C(O)(c1ccccc1)c1ccccc1`, the activation was inactive: 0.299%.

As to `C[C@@H]1C=CCP(=O)(Oc2ccccc2)O1` (stereo partly specified), the activation was inactive: 0.693%.

As to `C[C@H]1OP(=O)(Oc2ccccc2)C[C@@H]2O[C@@H]21` (stereo partly specified), the activation was inactive: -2.17%.

Regarding `CC(C)(C)C(=O)NC(Sc1ccccc1)C(Cl)(Cl)Cl` (stereo unspecified), the activation was inactive: -1.38%.

As to `O=P1(Nc2nc3ccc(Cl)cc3s2)COc2ccccc2O1` (stereo unspecified), the activation is inactive: 0.135%.

Regarding `CCOc1ccc(C2=NCC(CBr)S2)cc1` (stereo unspecified), the activation was inactive: 0.744%.

With `c1nnnn1CCn1cnnn1`, the activation was inactive: -1.51%.

`CC(C)C(=O)NC(Sc1ccccc1)C(Cl)(Cl)Cl` (stereo unspecified): the activation is inactive: 1.43%.

On to `O=P(Nc1nccs1)(c1ccccc1)c1ccccc1`, for which the activation is inactive: -0.0746%.

Regarding `Nc1ccc([As](=O)(O)c2ccc([N+](=O)[O-])cc2)cc1`, the activation is inactive: 1.32%.

On to `C(Cc1nn[nH]n1)Cc1nn[nH]n1`, for which the activation was inactive: -0.641%.

As to `O=C(OC1CN2CCC1CC2)c1cccc(Cl)c1` (stereo unspecified), the activation is inactive: 0.188%.

On to `O=[N+]([O-])c1ncn(CCn2cnc([N+](=O)[O-])n2)n1`, for which the activation is inactive: 1.43%.

Turning to `O=[As](O)(c1ccccc1)c1ccc(O)cc1`, the activation is inactive: -0.846%.

Take `O=P(Nc1nc2ccccc2s1)(c1ccccc1)c1ccccc1`: the activation is inactive: 1.67%.

For the molecule `C[C@H]1OP(=O)(Oc2ccccc2)[C@H](O)[C@H](O)[C@H]1N=[N+]=[N-]` (stereo partly specified), the activation is inactive: -1.43%.

Consider `O=P(Nc1ccccn1)(c1ccc(Br)cc1)c1ccc(Br)cc1`, for which the activation is inactive: 0.464%.

Regarding `CN(C)C1(CNC(=O)c2ccc(Cl)c(S(N)(=O)=O)c2)CCCCC1`, the activation was inactive: 0.469%.
